ChEMBL document CHEMBL4613227, “Synthesis and evaluation of the HIF-1α inhibitory activity of 3(5)-substituted-4-(quinolin-4-yl)- and 4-(2-phenylpyridin-4-yl)pyrazoles as inhibitors of ALK5” (Bioorg Med Chem Lett, 2020)

Target: T1, TGF-beta receptor type-1 (Homo sapiens) (UniProt P36897)
T1 sequence (whole entry): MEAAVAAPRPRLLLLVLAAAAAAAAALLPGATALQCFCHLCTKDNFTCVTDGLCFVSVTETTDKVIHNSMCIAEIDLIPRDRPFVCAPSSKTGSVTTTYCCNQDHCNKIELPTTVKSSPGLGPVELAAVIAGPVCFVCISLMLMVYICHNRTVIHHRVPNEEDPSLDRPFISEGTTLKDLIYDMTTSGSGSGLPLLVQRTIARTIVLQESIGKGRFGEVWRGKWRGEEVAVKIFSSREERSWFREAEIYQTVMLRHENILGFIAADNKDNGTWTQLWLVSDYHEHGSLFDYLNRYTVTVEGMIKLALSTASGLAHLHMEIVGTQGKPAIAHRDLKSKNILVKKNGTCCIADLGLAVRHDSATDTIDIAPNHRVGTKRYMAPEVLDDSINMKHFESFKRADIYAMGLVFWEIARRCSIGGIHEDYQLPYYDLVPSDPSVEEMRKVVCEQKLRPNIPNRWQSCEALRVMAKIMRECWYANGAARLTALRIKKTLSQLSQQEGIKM
Assay: Inhibition of recombinant GST-tagged human ALK5 expressed in baculovirus infected Sf9 insect cells assessed as residual activity at 10 uM
Method in brief: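 Single-point kinase screen at 10 μM, in duplicate; ALK5 as human GST-fusion from baculovirus/Sf9, p38α as untagged human protein from E. coli; residual activity relative to DMSO vehicle, mean ± SD of two independent experiments.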

Activity: 1%
Structure (SMILES): Cc1cccc(-c2nn3c(c2-c2ccnc4ccc(C(N)=O)cc24)CCC3)n1 [GALUNISERTIB]
